In PMC5441103, “Antiviral activity of phenanthrenes from the medicinal plant Bletilla striata against influenza A virus” (BMC Complementary and Alternative Medicine, 2017) one finds CC50 data, which are given here for 1 substance.

The subject of this data set is MDCK cells. Kind of data set: Cytotoxicity to MDCK cells (MTS-based assay). The format is cell-based, canine. To be noted: 48 h, read-out: CC50 (50% cytotoxic concentration). Here is the method: An MTS-based assay was performed to evaluate the cytotoxic effects of the test compounds on MDCK cells. Approximately 5 × 10^4 cells/well were seeded in 96-well microplates in MEM with 10% FBS at 37 °C in a humidified 5% CO2 incubator. When the monolayer was confluent, the cells were washed twice with PBS and then treated with compounds diluted in serum-free MEM. After incubation at 37 °C for 48 h, 20 μL of MTS was added to each well, and the cells were incubated for 2 h. The absorbance at 490 nm was determined using a microplate reader. The cell viability was calculated using the following formula: cell viability (%) = (drug treatment – background)/(control – background) × 100%. The half-maximal cytotoxic concentration (CC50) of the compounds was defined as the concentration that reduced the A490 of compound-treated cells to 50% of that of untreated cells.
In general terms: Formazan colour is commonly taken as a measure of viable cells.

Consider “2,2′–dyhydroxyl-4,4′,7,7′-9′,10′-dihydro-1,6′-di-phenanthrene [Compound 11]”, for which the CC50 came to 119 ± 19.6 µM.
